Laboratory results as given in patent publication US20100015126A1, “Methods of Binding of Cross-Beta Structures By Chaperones” (priority 2006, published 2010).

What was measured:
[1] = target: T1, recombinant human HSP90beta (Homo sapiens, UniProt P08238); test: Competition ELISA: HSP90 binding under influence of crossbeta binding compounds and geldanamycin; conditions: 20 μg/ml HSP90; geldanamycin 10 μM; sRAGE 79 μg/ml; HSA 10 μM
T1 construct: purchased Dr. S. Rüdiger, Cellular Protein Chemistry, Utrecht University
Description: Binding of chaperones to immobilized (misfolded) protein ligands was determined using an enzyme linked immuno sorbent assay (ELISA) approach. For this purpose 50 μl/well of potential ligands at indicated concentrations or coat buffer only for control and background measurement purposes, were coated overnight at 4° C. or coated for 1 h at room temperature, with motion, in 50 mM NaHCO3 pH 9.6 (coat buffer). In general, ligands were coated at 5 μg/ml, unless stated otherwise. […] Native haemoglobin (Sigma-Aldrich, H7379), albumin, IgIV Gammagard and ovalbumin controls were prepared from lyophilized stocks. The controls were prepared by dissolving lyophilized proteins at 1 mg/ml in PBS upon resuspending by pipetting, followed by a 30 minutes period at the roller device, at room temperature. The protein solutions were centrifuged for 10 minutes at 16,000*g and diluted in coat buffer. […] After 5 washes with wash buffer followed by two washes with PBS, binding of antibodies was assessed. […] Plates were read at 450 nm. Triplicates were averaged and standard deviations calculated. […] Subsequently, sub-optimal concentrations of chaperones for binding to misfolded protein ligands are determined, and these concentrations are used for inhibition studies.

[2] = test system: freshly isolated human platelets; test: Crossbeta-induced human platelet aggregation (aggregometer); assay type: cell-based
Description: Ex vivo Human Blood Platelet Aggregation Assay
The influence of crossbeta structure binding chaperones on blood platelet aggregation induced by crossbeta structure or crossbeta structure comprising pathogens is tested with washed platelets or with platelet rich plasma in an aggregometric assay. Freshly drawn human aspirin free blood is mixed gently with citrate buffer to avoid coagulation. Blood is spinned for 15′ at 150*g at 20° C. and supernatant is collected; platelet rich plasma (PRP). Buffer with 2.5% trisodium citrate, 1.5% citric acid and 2% glucose, pH 6.5 is added to a final volume ratio of 1:10 (buffer-PRP). After spinning down the platelets upon centrifugation for 15′ at 330*g at 20° C., the pellet is resuspended in HEPES-Tyrode buffer pH 6.5. Prostacyclin is added to a final concentration of 10 ng/ml, and the solution is centrifuged for 15′ at 330*g at 20° C., with a soft brake. The pellet is resuspended in HEPES-Tyrode buffer pH 7.2 in a way that the final platelet number is adjusted to 200,000-250,000 platelets/μl. Platelets are kept at 37° C. for at least 30′, before use in the assays, to ensure that they are in the resting state. Platelets of approximately five donors are isolated separately.
For the aggregometric assays, platelet solution is added to a glass tube and prewarmed to 37° C. A stirring magnet is added and rotation is set to 900 rpm, and the apparatus (Whole-blood aggregometer, Chrono-log, Havertown, Pa., USA) is blanked. A final volume of 1/10 of the volume of the platelet suspension is added, containing the agonist of interest and/or the premixed antagonist of interest, prediluted in HEPES-Tyrode buffer pH 7.2. Aggregation is followed in time by measuring the absorbance of the solution, that is decrease in time upon platelet aggregation. As a positive control, either 10 μg/ml collagen (Kollagenreagens Horm, NYCOMED Pharma GmbH, Linz, Austria; lot 502940), or 5 μM of synthetic thrombin receptor activating compound TRAP. In tests to analyse the effect of chaperones, 10-100 μg/ml glycated haemoglobin or 10-100 μg/ml amyloid-β is used to induce platelet aggregation. Aggregation is recorded for at least 15′.
Platelet aggregation-studies with freshly isolated human platelets were performed as described above. For aggregation studies, platelets of four separate donors were used on subsequent days. For each donor, concentrations of misfolded crossbeta proteins were determined that result in sub-optimal platelet aggregation when compared to maximum aggregation induced by 8 μM synthetic thrombin receptor activating peptide (TRAP; SFLLRN, SEQ ID 10; positive control). The sub-optimal crossbeta protein concentration was then used to study the effects of indicated concentrations of BiP, sRAGE and negative control buffer. Since BiP-FLAG-His and sRAGE-FLAG-His were stored in PBS with 5% glycerol, one of the. buffer controls was this glycerol buffer diluted to the same extent as the BiP and sRAGE solutions. […] Misfolded proteins, buffer control or TRAP control were pre-mixed with buffer or BiP or sRAGE, and pre-incubated for 5 minutes at room temperature, before mixtures were added to the platelet suspension that was warmed at 37° C. and stirred at 900 rpm.

sRAGE: soluble extracellular part of the receptor for advanced glycation endproducts
Binding of HSP90 to coated Aβ25-35 under influence of compound [1]: inhibited
Platelet aggregation by protein alone, without activator [2]: did not induce platelet aggregation
TRAP-induced platelet aggregation ([2]; 8 μM TRAP): unaffected
Misfolded protein induced platelet aggregation ([2]; activators Aβ42t=0, HbAGE, BSA-AGE, four donors): potently inhibited
Platelet aggregation induced by amyloid-β1-42 ([2]; donor a): strongly inhibited
Platelet aggregation induced by crossbeta BSA-AGE ([2]; donor a): strongly inhibited
Platelet aggregation induced by Aβ1-42 ([2]; donor b, Aβ42t=0 26.7 μg/ml): inhibited
Platelet aggregation induced by crossbeta BSA-AGE ([2]; donor b, BSA-AGE 33.3 μg/ml): strongly inhibited
Aβ42 induced platelet activation ([2]; donor c): abolish
BSA-AGE induced platelet aggregation ([2]; donor c): inhibit
HbAGE induced platelet aggregation ([2]; donor c): effectively blocked
HbAGE induced platelet aggregation ([2]; donor d, BiP 58 μg/ml, sRAGE 37.4 μg/ml, HbAGE 80 μg/ml): abolishes

CEALB HSA: human serum albumin (Sanquin), negative control
Binding of HSP90 to coated Aβ25-35 under influence of compound [1]: did not influence binding
